{"sequences": {"note": "Protein sequences, listed by entry. Tags and fused reporters are not part of them. Lines headed by an entry give the natural chain unless they say otherwise; changes in a name come on top.", "UniProt P10275": "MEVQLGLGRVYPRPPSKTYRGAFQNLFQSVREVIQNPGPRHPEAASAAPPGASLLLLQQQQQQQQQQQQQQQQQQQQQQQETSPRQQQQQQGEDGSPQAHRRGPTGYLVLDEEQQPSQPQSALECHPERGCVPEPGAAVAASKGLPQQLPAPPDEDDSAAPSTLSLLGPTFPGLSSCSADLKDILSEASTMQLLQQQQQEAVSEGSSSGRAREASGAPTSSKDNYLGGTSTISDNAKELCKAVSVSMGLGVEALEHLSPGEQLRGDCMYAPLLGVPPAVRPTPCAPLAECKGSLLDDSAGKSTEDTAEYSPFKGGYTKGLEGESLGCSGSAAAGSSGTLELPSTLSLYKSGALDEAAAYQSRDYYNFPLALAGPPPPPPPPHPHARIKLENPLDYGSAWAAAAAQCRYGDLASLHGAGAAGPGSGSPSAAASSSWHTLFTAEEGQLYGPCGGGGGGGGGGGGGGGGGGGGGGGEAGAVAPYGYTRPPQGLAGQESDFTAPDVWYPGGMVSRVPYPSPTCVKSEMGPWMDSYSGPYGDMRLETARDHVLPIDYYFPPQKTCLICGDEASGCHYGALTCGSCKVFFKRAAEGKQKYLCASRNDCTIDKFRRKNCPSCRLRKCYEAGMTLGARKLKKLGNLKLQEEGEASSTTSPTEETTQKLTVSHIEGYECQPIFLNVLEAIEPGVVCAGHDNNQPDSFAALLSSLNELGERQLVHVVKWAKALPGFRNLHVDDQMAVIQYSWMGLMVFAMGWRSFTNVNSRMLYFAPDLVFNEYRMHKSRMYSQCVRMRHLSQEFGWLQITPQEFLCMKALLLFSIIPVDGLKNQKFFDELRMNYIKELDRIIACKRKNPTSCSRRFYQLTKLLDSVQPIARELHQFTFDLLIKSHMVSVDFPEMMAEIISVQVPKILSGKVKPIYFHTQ", "UniProt Q03181": "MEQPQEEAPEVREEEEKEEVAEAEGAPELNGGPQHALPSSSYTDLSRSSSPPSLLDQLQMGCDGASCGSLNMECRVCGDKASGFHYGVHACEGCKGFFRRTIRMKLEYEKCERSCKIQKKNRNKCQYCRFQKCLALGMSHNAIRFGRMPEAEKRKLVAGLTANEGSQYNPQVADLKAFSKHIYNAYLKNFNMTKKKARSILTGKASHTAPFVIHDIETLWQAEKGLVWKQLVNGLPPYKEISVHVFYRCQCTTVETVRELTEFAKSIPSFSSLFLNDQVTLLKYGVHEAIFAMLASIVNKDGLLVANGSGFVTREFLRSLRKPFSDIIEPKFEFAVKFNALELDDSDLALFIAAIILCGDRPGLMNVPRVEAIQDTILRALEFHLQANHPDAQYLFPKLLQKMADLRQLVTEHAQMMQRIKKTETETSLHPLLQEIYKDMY", "UniProt P19793": "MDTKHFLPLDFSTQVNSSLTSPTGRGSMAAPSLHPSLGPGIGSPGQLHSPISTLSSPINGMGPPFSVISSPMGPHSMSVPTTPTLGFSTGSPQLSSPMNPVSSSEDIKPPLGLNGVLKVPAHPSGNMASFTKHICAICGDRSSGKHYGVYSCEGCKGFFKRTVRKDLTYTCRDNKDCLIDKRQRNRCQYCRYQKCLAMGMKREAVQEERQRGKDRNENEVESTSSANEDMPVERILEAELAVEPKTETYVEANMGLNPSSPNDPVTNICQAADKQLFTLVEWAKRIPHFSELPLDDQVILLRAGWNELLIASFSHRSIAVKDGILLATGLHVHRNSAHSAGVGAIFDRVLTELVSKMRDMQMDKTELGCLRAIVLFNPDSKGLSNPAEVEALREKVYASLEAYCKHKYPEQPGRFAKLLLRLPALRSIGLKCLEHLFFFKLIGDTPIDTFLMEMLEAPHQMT", "UniProt P10828": "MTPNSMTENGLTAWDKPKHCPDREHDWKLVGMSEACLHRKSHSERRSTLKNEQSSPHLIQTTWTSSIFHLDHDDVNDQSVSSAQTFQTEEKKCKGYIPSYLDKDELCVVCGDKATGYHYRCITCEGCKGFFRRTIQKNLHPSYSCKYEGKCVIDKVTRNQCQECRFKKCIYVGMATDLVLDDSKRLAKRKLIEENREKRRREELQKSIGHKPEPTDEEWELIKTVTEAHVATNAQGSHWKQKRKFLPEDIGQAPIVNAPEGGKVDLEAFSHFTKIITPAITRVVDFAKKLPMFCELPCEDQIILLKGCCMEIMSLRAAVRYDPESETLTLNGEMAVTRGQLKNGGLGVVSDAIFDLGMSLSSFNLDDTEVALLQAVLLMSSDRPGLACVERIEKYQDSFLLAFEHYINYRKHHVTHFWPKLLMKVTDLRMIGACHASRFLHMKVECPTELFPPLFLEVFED", "UniProt Q12809": "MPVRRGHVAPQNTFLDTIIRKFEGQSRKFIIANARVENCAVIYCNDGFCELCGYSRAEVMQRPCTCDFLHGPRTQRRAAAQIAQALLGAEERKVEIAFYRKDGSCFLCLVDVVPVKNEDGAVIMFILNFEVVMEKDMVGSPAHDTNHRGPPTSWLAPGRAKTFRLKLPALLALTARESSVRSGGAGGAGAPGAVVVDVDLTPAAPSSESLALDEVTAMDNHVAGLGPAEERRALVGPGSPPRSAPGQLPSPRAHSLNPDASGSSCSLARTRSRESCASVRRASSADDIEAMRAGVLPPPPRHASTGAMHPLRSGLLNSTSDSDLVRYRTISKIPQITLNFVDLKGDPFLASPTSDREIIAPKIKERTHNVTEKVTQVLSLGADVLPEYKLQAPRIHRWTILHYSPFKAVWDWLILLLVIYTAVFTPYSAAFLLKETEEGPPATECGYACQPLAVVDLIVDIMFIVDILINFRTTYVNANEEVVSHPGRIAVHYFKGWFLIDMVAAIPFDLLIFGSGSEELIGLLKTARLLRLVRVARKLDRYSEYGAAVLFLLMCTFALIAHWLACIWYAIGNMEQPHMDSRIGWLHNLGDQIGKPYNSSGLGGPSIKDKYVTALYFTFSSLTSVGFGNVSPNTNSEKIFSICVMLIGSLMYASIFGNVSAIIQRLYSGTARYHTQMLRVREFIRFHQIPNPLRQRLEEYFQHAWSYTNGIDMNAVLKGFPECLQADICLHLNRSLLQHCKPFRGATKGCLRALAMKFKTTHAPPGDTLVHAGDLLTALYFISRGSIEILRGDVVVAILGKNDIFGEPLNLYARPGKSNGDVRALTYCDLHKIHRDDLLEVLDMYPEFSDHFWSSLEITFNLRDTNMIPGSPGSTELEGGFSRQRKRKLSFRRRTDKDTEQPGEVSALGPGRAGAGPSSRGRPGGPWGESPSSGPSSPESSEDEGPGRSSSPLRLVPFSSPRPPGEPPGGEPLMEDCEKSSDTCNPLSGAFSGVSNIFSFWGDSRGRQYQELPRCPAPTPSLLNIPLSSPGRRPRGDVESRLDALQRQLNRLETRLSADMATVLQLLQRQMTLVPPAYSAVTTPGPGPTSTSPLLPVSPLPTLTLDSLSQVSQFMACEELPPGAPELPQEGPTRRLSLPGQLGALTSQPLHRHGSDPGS", "UniProt P08659, whole entry, looked up": "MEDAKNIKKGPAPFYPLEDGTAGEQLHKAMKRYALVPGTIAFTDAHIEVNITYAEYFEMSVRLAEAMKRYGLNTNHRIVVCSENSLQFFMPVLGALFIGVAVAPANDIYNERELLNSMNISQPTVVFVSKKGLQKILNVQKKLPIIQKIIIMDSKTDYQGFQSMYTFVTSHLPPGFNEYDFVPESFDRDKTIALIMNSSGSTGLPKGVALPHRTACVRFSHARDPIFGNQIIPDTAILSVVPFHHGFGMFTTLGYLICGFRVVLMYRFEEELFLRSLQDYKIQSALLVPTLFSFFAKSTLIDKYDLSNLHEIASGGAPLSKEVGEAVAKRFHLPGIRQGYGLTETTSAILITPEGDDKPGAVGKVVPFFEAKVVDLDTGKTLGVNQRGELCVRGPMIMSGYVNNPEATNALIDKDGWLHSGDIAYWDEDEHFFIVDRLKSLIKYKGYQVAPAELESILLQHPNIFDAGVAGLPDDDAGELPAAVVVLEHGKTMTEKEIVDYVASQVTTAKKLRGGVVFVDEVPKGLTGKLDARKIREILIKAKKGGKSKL"}, "source": "PubChem BioAssay (NCATS)", "key": {"[1]": {"assay": "Cell Viability - LYMP1-002 - Assay at 40 hr (AID 994; active = well fitted curve in the direction sought with a large enough effect; an effect the other way counts as inactive or inconclusive; also: nearly all actives have a fitted effect of over 60% in size)", "conditions": "LYMP1-002 lymphoblastoid cell viability; at 92.2 µM (top of the series)", "how_it_was_run": "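LYMP1-002 human lymphoblastoid cells (2500/well, complete medium) were treated with compounds for 40 hr at 37 C. Intracellular ATP was measured by CellTiter-Glo luminescence, and AC50 values came from Hill-equation fits of concentration-response data; tetraoctylammonium bromide was the positive control.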"}, "[2]": {"assay": "qHTS Assay for Identification of Small Molecule Inducers of Hypoxia Response (AID 2120; active = well fitted curve in the direction sought with a large enough effect in the signal ratio, with a control signal flat, not every such curve was filed as active; the % refers to the signal ratio; also: 0% is about no effect)", "conditions": "hypoxia response reporter cells, beta-lactamase ratio readout; at 104 µM (top of the series)", "how_it_was_run": "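HRE-bla ME-180 cells in Opti-MEM with 0.5% dialyzed FBS, pre-plated 4-5 h, then compound titration for 17 h at 37 degrees Celsius. CCF4 loaded 2.5 h at room temperature; 460/530 nm ratio gave %Activity and AC50 for induction.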"}, "[3]": {"target": "Androgen receptor (Homo sapiens) (UniProt P10275)", "assay": "qHTS assay for small molecule agonists of androgen receptor signaling (AID 588515; active = well fitted curve in the direction sought with a large enough effect in the signal ratio, with a control signal flat; the % refers to the signal ratio; also: % is scaled to controls: 0 for no effect and ±100 for the full control effect)", "conditions": "AR-UAS-bla HEK293, beta-lactamase ratio, agonist 16 h; active compounds read high"}, "[4]": {"target": "Bile acid receptor (Homo sapiens) (UniProt Q96RI1)", "assay": "qHTS assay for small molecule agonists of farnesoid X receptor signaling (AID 588527);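 also: 0% = vehicle basal and 100% = reference agonist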", "conditions": "HEK293T FXR-UAS-bla, beta-lactamase ratio, 16 h; active compounds read high"}, "[5]": {"target": "Glucocorticoid receptor (Homo sapiens) (UniProt P04150)", "assay": "qHTS assay for small molecule agonists of glucocorticoid receptor signaling (AID 588532; active = well fitted curve in the direction sought with a large enough effect in the signal ratio, with a control signal flat; the % refers to the signal ratio;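 also: 100% = dexamethasone at 0.1 µM and 0% = DMSO only wells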)", "conditions": "HeLa MMTV-bla, beta-lactamase ratio, agonist, 18 h; active compounds read high"}, "[6]": {"target": "Peroxisome proliferator-activated receptor delta (Homo sapiens) (UniProt Q03181)", "assay": "qHTS assay for small molecule antagonists of peroxisome proliferator-activated receptor delta signaling (AID 588535; active = well fitted inhibition curve with a large enough effect in the signal ratio, with a control signal flat, not every such curve was filed as active; the % refers to the signal ratio)", "conditions": "HEK293T PPARd-UAS-bla, beta-lactamase FRET ratio, 18 h; at 76.7 µM (top of the series)"}, "[7]": {"target": "Peroxisome proliferator-activated receptor gamma (Homo sapiens) (UniProt P37231)", "assay": "qHTS assay for small molecule agonists of peroxisome proliferator-activated receptor gamma signaling (AID 588536; active = well fitted curve in the direction sought with a large enough effect in the signal ratio, with a control signal flat, not every such curve was filed as active; the % refers to the signal ratio)", "conditions": "HEK293 PPARg-UAS-bla, beta-lactamase ratio, 16 h, percent of rosiglitazone response, DMSO as zero; at 76.7 µM (top of the series)"}, "[8]": {"target": "Vitamin D3 receptor (Homo sapiens) (UniProt P11473)", "assay": "qHTS assay for small molecule antagonists of vitamin D receptor signaling (AID 588541);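 also: receptor activated by calcitriol during compound treatment; % is scaled to controls: 0 for no effect and ±100 for the full control effect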", "conditions": "HEK293T VDR-UAS-bla, beta-lactamase ratio, antagonist mode; at 76.7 µM (top of the series)", "how_it_was_run": "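Antagonist-mode beta-lactamase reporter assay: HEK293T VDR-UAS-bla cells were exposed to titrated compound alongside 1-alpha,25-dihydroxyvitamin D3 at 3 nM final for 16 h. Values were normalized to the 50 nM agonist control and DMSO basal, with IC50 and efficacy from Hill equation fits.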"}, "[9]": {"target": "Vitamin D3 receptor (Homo sapiens) (UniProt P11473)", "assay": "qHTS assay for small molecule agonists of vitamin D receptor signaling (AID 588543)", "conditions": "HEK293T VDR-UAS-bla, beta-lactamase ratio, 16 h; at 76.8 µM (top of the series)", "how_it_was_run": "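β-lactamase reporter, VDR-UAS-bla HEK293T, agonist mode. Cells plated 5 h at 37 °C, compound titration 16 h at 37 °C, CCF4 dye 2 h RT, ratio 460/530 nm. Hill fit → EC50, efficacy vs 50 nM 1α,25-(OH)2D3.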"}, "[10]": {"target": "Retinoic acid receptor RXR-alpha (Homo sapiens) (UniProt P19793)", "assay": "qHTS assay for small molecule agonists of retinoid X receptor alpha signaling (AID 588544)", "conditions": "HEK293T RXRa-UAS-bla, beta-lactamase reporter, 18 h; at 76.7 µM (top of the series)", "from_the_text": "NIH Chemical Genomics Center [NCGC] U.S. Environmental Protection Agency [EPA] National Institutes of Environmental Health Sciences [NIEHS] National Toxicology Program [NTP] NCGC Assay Overview The Retinoid X receptor (RXR), a nuclear hormone receptor is expressed in liver, spleen, placenta, epidermis, central nervous system. These receptors are able to form homo and heterodimers with other nuclear receptors and due to this heterodimerizing ability, RXR functions as master regulators producing diverse physiological effects. Three subtypes of RXR exist; alpha, beta and gamma. Retinoid X receptor alpha (RXR-alpha) has potential roles in metabolic signaling pathways, skin alopecia, dermal cysts, cardiac development, insulin sensitization etc. Therefore screening environmental chemicals on RXR-alpha signaling can be used for the studies focused on such therapeutic applications.\nNCGC Assay Protocol Summary Using a beta-lactamase reporter-gene under control of Retinoid X receptor--alpha (RXR-alpha) response element, a cell-based assay [GeneBLAzer (RXR-alpha -UAS-bla assay developed by Invitrogen] was used to measure RXR-alpha ligands signaling. GeneBLAzer RXR-alpha -UAS-bla HEK293T cells were used with assay medium containing 2% charcoal-stripped FBS. The assay was performed in clear bottom black Greiner 1536-well plates. 9-cis-retinoic acid was used in the screen as the positive control. Library compounds were measured for their ability to stimulate the reporter gene activity. Compounds were screened in a titration series in 1536-well format. The fluorescence intensity (405 nm excitation, 460/530 nm emission) was measured using an EnVision plate reader. Data was normalized relative to 9-cis-retinoic acid control (500 nM, 100%), and DMSO only wells (basal, 0%). Concentration-response titration points for each compound were fitted to the Hill equation yielding concentrations of half-maximal stimulation (EC50) and maximal response (efficacy) values. qHTS protocol for RXR-alpha beta-lactamase assay in agonist mode [Step] [Parameter] [Value] [Description] 1. Reagent; 6 uL; 2500 cells/well 2. Incubation; 37 C for 4 hrs 3. Compounds; 23 nL; 0.59 nM to 92 uM 4. Controls (9-cis-retinoic acid); 23 nL, - One column with dose response, start 38 uM, 1:3 dilutions in duplicates - Final concentrations of 500 nM and 50 nM in two columns 5. Incubation; 37 C for 18 hrs 6. Detection reagent; 1 uL of CCF4-dye 7. Incubation; RT for 2 hrs 8. Detection; Fluorescence; Envision plate reader"}, "[11]": {"target": "Thyroid hormone receptor beta (Homo sapiens) (UniProt P10828)", "assay": "qHTS assay for small molecule agonists of thyroid hormone receptor beta signaling (AID 588545)", "conditions": "TR-UAS-bla GripTite HEK 293, beta-lactamase ratio, agonist mode, 18 h, percent of T3 response, DMSO as zero; at 76.7 µM (top of the series)", "how_it_was_run": "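Cells (2500/well) were seeded, incubated 4 hrs at 37 C, dosed with a compound series, incubated 18 hrs, loaded with CCF4 dye for 2 hrs at RT, then read for fluorescence. Data were scaled between DMSO (0%) and 10 nM T3 (100%).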"}, "[12]": {"target": "Retinoic acid receptor RXR-alpha (Homo sapiens) (UniProt P19793)", "assay": "qHTS assay for small molecule antagonists of retinoid X receptor alpha signaling (AID 588546; active = well fitted inhibition curve with a large enough effect in the signal ratio, with a control signal flat, not every such curve was filed as active; the % refers to the signal ratio; also: % is scaled to controls: 0 for no effect and ±100 for the full control effect)", "conditions": "HEK293T RXRa-UAS-bla, beta-lactamase ratio, antagonist mode", "how_it_was_run": "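Beta-lactamase reporter inhibition, read as CCF4 fluorescence ratio (ex 405, em 460/530 nm) after 2 h at RT. HEK293T UAS-bla cells, 2500/well, were stimulated with 9-cis-RA at 500 or 100 nM final alongside test compound for 18 h at 37 C.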"}, "[13]": {"target": "Thyroid hormone receptor beta (Homo sapiens) (UniProt P10828)", "assay": "qHTS assay for small molecule antagonists of thyroid hormone receptor beta signaling (AID 588547; active = well fitted inhibition curve with a large enough effect in the signal ratio, with a control signal flat, not every such curve was filed as active; the % refers to the signal ratio)", "conditions": "TR-UAS-bla HEK293, beta-lactamase ratio, antagonist mode, 18 h; active compounds read low", "how_it_was_run": "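Inhibition of T3-driven (0.4nM final) beta-lactamase reporter activity was measured over 0.59 nM to 92 uM compound after 18 h at 37 C. The cells were GripTite HEK293 TR-UAS-bla in charcoal/dextran-stripped serum, with CCF4 ratio read-out and IC50 from Hill fits.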"}, "[14]": {"target": "Voltage-gated inwardly rectifying potassium channel KCNH2 (Homo sapiens) (UniProt Q12809)", "assay": "qHTS Assay for Small Molecule Inhibitors of the Human hERG Channel Activity (AID 588834; active = well fitted curve in the direction sought with a large enough effect; an effect the other way counts as inactive or inconclusive;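 also: top concentration of the series differs between compounds; % is scaled to controls: 0 for no effect and ±100 for the full control effect; lower thallium flux fluorescence means stronger hERG block; nearly all actives have a fitted effect of over 50% in size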)", "conditions": "U2OS BacMam hERG, FluxOR thallium flux fluorescence; at 46.1 µM (top of the series) unless noted"}, "[15]": {"target": "Luciferin 4-monooxygenase (Photinus pyralis) (UniProt P08659)", "assay": "Biochemical firefly luciferase enzyme assay for NPC (AID 624030; active = well fitted curve in the direction sought with a large enough effect; an effect the other way counts as inactive or inconclusive; also: nearly all actives have a fitted effect of over 70% in size)", "conditions": "purified P. pyralis luciferase, luminescence, 5 min; at 58.6 µM (top of the series) unless noted", "how_it_was_run": "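Direct inhibition of firefly luciferase enzyme (10 nM final, 50 mM Tris Acetate) assessed by luminescence within 5 minutes. Percent activity scaled between DMSO and PTC124 positive control, with concentration-effect curves classified by fit quality and response.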"}, "[16]": {"assay": "qHTS assay for small molecule activators of the p53 signaling pathway (AID 651743; active = well fitted activation curve with a large enough effect in the signal ratio, not every such curve was filed as active; the % refers to the signal ratio; also: % of control where 0% means no effect)", "conditions": "HCT-116 p53RE-bla, beta-lactamase FRET ratio, 16 h; activation: active compounds read high"}, "[17]": {"assay": "qHTS assay for small molecule activators of the nuclear factor-kappa B (NF-kB) signaling pathway (AID 651749; active = well fitted activation curve with a large enough effect in the signal ratio; the % refers to the signal ratio; also: % of control where 0% means no effect)", "conditions": "NF-kB-bla ME-180 cells, beta-lactamase FRET ratio, 16 h; active compounds read high", "how_it_was_run": "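Readout: beta-lactamase reporter driven by an NF-kB response element, detected fluorescently as loss of FRET. Cells were the ME-180 line, treated 16 hr at 37C with pin-transferred compound.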"}, "[18]": {"assay": "qHTS assay for small molecule disruptors of the mitochondrial membrane potential - 1 hr assay (AID 651754); also: potency is read from the fitted curve at half-maximal effect; nearly all actives have a fitted effect of over 35% in size", "conditions": "HepG2 mitochondrial membrane potential, JC-1 ratio 590/535, 1 h", "how_it_was_run": "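HepG2 cells, attached overnight, were exposed to compound for 1 hr at 37C, then stained 30 min with a potentiometric dye. Ratio of red aggregate (590nm) to green monomer (535nm) fluorescence reports membrane potential; collapse shifts signal toward green.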"}, "[19]": {"assay": "qHTS assay for small molecule disruptors of the mitochondrial membrane potential - 5 hr assay (AID 651755); also: potency is read from the fitted curve at half-maximal effect; nearly all actives have a fitted effect of over 40% in size", "conditions": "JC-1-type ratio dye"}}, "note": "Values joined by “and” are separate entries in the source; they are usually repeats but may differ in a detail not shown here. Equal entries are not always repeated. The entries are a selection whose mix differs from that of the whole data set. Inconclusive results are not listed. For some of these results: Measured potencies and affinities stand elsewhere. Active and inactive are the calls of the source. Unless noted, calls follow the shape of the full dose curve."}
{"smiles": "Cc1cc([N+](=O)[O-])cc([N+](=O)[O-])c1O", "values": [{"measurement": "viability change, negative = cytotoxic", "setting": "[1]", "result": "inactive: -26.6%"}, {"measurement": "activation", "setting": "[2]", "result": "inactive: 1.81%"}, {"measurement": "activation", "setting": "[3]", "result": "inactive: -2.59%"}, {"measurement": "activation", "setting": "[4]", "result": "inactive: 1.32%"}, {"measurement": "activation", "setting": "[5]", "result": "inactive: -2.59% and inactive: -13.1%"}, {"measurement": "activity change, negative = inhibition", "setting": "[6]", "result": "inactive: -9.44%"}, {"measurement": "activation", "setting": "[7]", "result": "inactive: -9.59%"}, {"measurement": "activity change, negative = inhibition", "setting": "[8]", "result": "inactive: 13.3%"}, {"measurement": "activation", "setting": "[9]", "result": "inactive: -0.188% and inactive: -4.65%"}, {"measurement": "activation", "setting": "[10]", "result": "inactive: -8.04% and inactive: -26.3%"}, {"measurement": "activation", "setting": "[11]", "result": "inactive: 5.26% and inactive: -6.47%"}, {"measurement": "max response", "setting": "[12]", "result": "inactive: -3.13% and inactive: -46.3%"}, {"measurement": "inhibition", "setting": "[13]", "result": "inactive: -13.4%"}, {"measurement": "activity change, negative = inhibition", "setting": "[14]", "result": "inactive: 10.7% [at 92.2 µM]"}, {"measurement": "activity change, negative = inhibition", "setting": "[15]", "result": "inactive: -9.74% [at 123 µM]"}, {"measurement": "activation", "setting": "[16]", "result": "inactive: 28.4%"}, {"measurement": "activation", "setting": "[17]", "result": "inactive: -2.06% and inactive: 0.289%"}, {"measurement": "Potency", "setting": "[18]", "result": "active: 42.2 µM"}, {"measurement": "Potency", "setting": "[19]", "result": "active: 66.8 µM"}]}
